In ChEMBL document CHEMBL3259735, “Designing bifunctional NOP receptor-mu opioid receptor ligands from NOP-receptor selective scaffolds. Part II” (Bioorg Med Chem, 2014) one finds inhibition data, which are given here for one compound.

Sequences of proteins named here, by UniProt entry; tags and fusion partners are left off.
UniProt P41143, whole entry, looked up: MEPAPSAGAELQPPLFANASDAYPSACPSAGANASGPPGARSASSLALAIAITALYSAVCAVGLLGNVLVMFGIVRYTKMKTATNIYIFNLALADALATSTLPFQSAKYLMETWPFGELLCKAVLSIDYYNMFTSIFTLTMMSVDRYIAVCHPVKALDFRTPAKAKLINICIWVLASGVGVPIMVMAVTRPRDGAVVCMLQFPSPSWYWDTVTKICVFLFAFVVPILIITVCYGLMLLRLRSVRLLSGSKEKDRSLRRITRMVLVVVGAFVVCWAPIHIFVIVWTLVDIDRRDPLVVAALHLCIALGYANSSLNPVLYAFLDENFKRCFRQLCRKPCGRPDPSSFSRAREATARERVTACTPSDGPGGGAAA

Active and inactive are the calls of the source. The calls are words filed in the database; no cut-off is given here.

The target of the assay is Delta-type opioid receptor (Homo sapiens) (UniProt P41143). Put plainly: Displacement of [3H]Cl-DPDPE from human delta opioid receptor transfected in CHO cell membranes after 60 mins.

On to `CN(C(=O)Cc1ccccc1)[C@H]1CC[C@@]2(CCCO2)C[C@@H]1N1CCCC1`, for which the inhibition result was “inactive”.
